Measured values published in patent EP4847492A1, “USE OF SALT FORMS OF COMPOUND AND CRYSTAL FORMS THEREOF IN TREATMENT OF HEART FAILURE WITH PRESERVED EJECTION FRACTION” (dated 2026).
“And” between values parts separate entries of the source, which are not always exact repeats. Equal values may be shown once. Where a name gives a salt, the structure may show the parent alone.

Experiments:
[1] = Crystal form stability under ambient conditions; settings: approximately 20 to 25 °C, 60% to 75% RH
[2] = Thermal analysis (DSC/TGA), thermal stability
[3] = Water activity competition experiment, ethanol/water, 5°C and 25°C; settings: for water activity (a.w.) at which choline salt Form A transforms to choline salt Form B / Form B is thermodynamically more stable: ethanol/water, 5 days
[4] = Preliminary physical stability, open storage at 25°C/60% RH and 25°C/80% RH
[5] = test system: HFpEF animal model; test: HFpEF mouse model (HFD + L-NAME), echocardiography and Doppler imaging
[6] = Body weight (obesity) of HFpEF model mice; settings: model treatment group (T-5224); Figure 3C
[7] = test system: Jun; settings: model treatment group (T-5224) vs model control group; Figure 3D
[8] = Solubility at 37°C in water, buffer and simulated biological fluids (2 h, 24 h)
[9] = Solid stability, 25°C/92.5%RH open and 60°C closed, 1 week (XRPD, HPLC, color); set-up: CL (color) / Color: key to the marks not given beside the values; settings: for Color / Solid (XRPD) / Purity, Solid (HPLC): Solid; for Purity, Solid (HPLC): Initial Purity 98.8%
[10] = Pharmacokinetic study, plasma concentration by LC-MS/MS; settings: Oral administration 12 mg/kg, Balb/c mice, male, fasted
[11] = Simulated tableting experiment; settings: 5 minutes; for crystal form transition and crystallinity after tableting: XRPD
[12] = Simulated wet granulation experiment
[13] = Simulated dry grinding experiment
[14] = AW2, Ethanol/water (86:14,v:v) (a.w.=0.6)
[15] = AW3, Ethanol/water (90:10,v:v) (a.w.=0.5)
[16] = AW4, Ethanol/water (93:7,v:v) (a.w.=0.4)
[17] = AW5, Ethanol/water (95:5,v:v) (a.w.=0.3)
[18] = AW6, Ethanol/water (97:3,v:v) (a.w.=0.2)
[19] = AW7, Ethanol/water (99:1,v:v) (a.w.=0.1)
[20] = individual animals, listed as T-5224 choline salt Form B, 12 mg/kg
[21] = mean of 3, listed as T-5224 choline salt Form B, 12 mg/kg
[22] = GNSE1, Granulation solvent Ethanol

O=C(O)CCc1cc(C(=O)c2ccc(OC3CCCC3)cc2O)ccc1OCc1ccc2c(O)noc2c1
crystal form change under ambient conditions [1]: transformed to choline salt Form B after 2 days | thermal stability, decomposition starting [2]: around 120 °C | XRPD after 5 days at 5°C ([3]; AW1, Water (a.w.=1)): T-5224 Form D, gel-like sample | XRPD after 5 days at 25°C ([3]; AW1, Water (a.w.=1)): T-5224 Form D, gel-like sample | XRPD after 5 days at 5°C [3, 14]: Choline salt Form B | XRPD after 5 days at 25°C [3, 14]: T-5224 Form C with additional diffraction peaks (possibly from T-5224 Form A) | XRPD after 5 days at 5°C [3, 15]: Choline salt Form B | XRPD after 5 days at 25°C [3, 15]: T-5224 Form C | XRPD after 5 days at 5°C [3, 16]: Choline salt Form B | XRPD after 5 days at 25°C [3, 16]: T-5224 Form C + Choline salt Form B | XRPD after 5 days at 5°C [3, 17]: Choline salt Form B | XRPD after 5 days at 25°C [3, 17]: Choline salt Form B | XRPD after 5 days at 5°C [3, 18]: Choline salt Form B | XRPD after 5 days at 25°C [3, 18]: Choline salt Form B | XRPD after 5 days at 5°C [3, 19]: Choline salt Form B | XRPD after 5 days at 25°C [3, 19]: Choline salt Form B | XRPD after 5 days at 5°C ([3]; AW8, Ethanol (a.w.=0)): Choline salt Form B | XRPD after 5 days at 25°C ([3]; AW8, Ethanol (a.w.=0)): Choline salt Form B | XRPD after 5 days at 5°C ([3]; AW9, Ethanol/water (80:20,v:v) (a.w.=0.7)): T-5224 Form A + Form C | moisture absorption and color change of the solid ([4]; 25°C/60%RH, open storage for 3 days): No significant moisture absorption of the solid; no significant color change. | moisture absorption and color change of the solid ([4]; 25°C/80%RH, open storage for 2 days): No significant moisture absorption of the solid; no significant color change. | diastolic function (E/E') ([5]; Example A, HFD + 0.5g/L L-NAME mice, T-5224 every other day from 5th to 13th week, 0.8 mg in 1% PVP, total dose 250 mg/kg, followed to 15th week, vs model control): significantly improved | mouse obesity (body weight) [6]: improved | expression of Jun in mouse cardiomyocytes [7]: down-regulated

O=C(O)CCc1cc(C(=O)c2ccc(OC3CCCC3)cc2O)ccc1OCc1ccc2c(O)noc2c1 [Choline salt Form B]
Thermal weight loss (TGA) ([2]; @ 140°C): 0.7% @ 140 °C | water activity (a.w.) at which choline salt Form A transforms to choline salt Form B / Form B is thermodynamically more stable ([3]; 5°C): ≤ 0.6 | water activity (a.w.) at which choline salt Form A transforms to choline salt Form B / Form B is thermodynamically more stable ([3]; 25°C): ≤ 0.3 | pH of the supernatant 24h ([8]; FaSSGF, pH 1.6, 37°C): 1.6 | pH of the supernatant 24h ([8]; FaSSIF-v1, pH 6.5, 37°C): 6.7 | pH of the supernatant 24h ([8]; FeSSIF-v1, pH 5.0, 37°C): 5.0 | pH of the supernatant 24h ([8]; Water, 37°C): 7.7 | diastolic function (E/E') ([5]; Example 6, 3 mg/kg per administration, every other day, 0.5% PVP, 3 weeks after administration, Figure 73): significantly improved | physical and chemical stability ([9]; 25°C/92.5%RH open and 60°C closed, summary statement): good physical and chemical stability | Color ([9]; 25°C/92.5%RH, open containers): A | Solid (XRPD) ([9]; 25°C/92.5%RH, open containers): Choline salt Form B | Purity, Solid (HPLC) ([9]; 25°C/92.5%RH, open containers): 98.8% | Color ([9]; 60°C, closed containers): A | Solid (XRPD) ([9]; 60°C, closed containers): Choline salt Form B | Purity, Solid (HPLC) ([9]; 60°C, closed containers): 98.8% | Tmax ([10]; individual animals): 15 min | AUC0-t [10, 20]: 2935 ng·h/mL and 2416 ng·h/mL and 3039 ng·h/mL | AUC0-∞ [10, 20]: 2941 ng·h/mL and 2421 ng·h/mL and 3051 ng·h/mL | Cl -F [10, 20]: 68.0 mL/min/kg and 82.6 mL/min/kg and 65.6 mL/min/kg | MRT [10, 20]: 47.4 min and 46.2 min and 39 min | T1/2 [10, 20]: 42 min and 45 min and 58.2 min | Vz -F [10, 20]: 4.10 L/kg and 5.39 L/kg and 5.53 L/kg | Tmax, Mean ([10]; mean of 3): 15 min | AUC0-t, Mean [10, 21]: 2797 ng·h/mL | AUC0-∞, Mean [10, 21]: 2804 ng·h/mL | Cl -F, Mean [10, 21]: 72.1 mL/min/kg | Cmax, Mean [10, 21]: 5087 ng/mL | MRT, Mean [10, 21]: 44.4 min | T1/2, Mean [10, 21]: 48.6 min | Vz -F, Mean [10, 21]: 5.01 L/kg | Remarks (crystallinity) ([11]; CSE1, Pressure 2MPa): No significant change in crystallinity | XRPD ([11]; CSE1, Pressure 2MPa): Choline salt Form B | Remarks (crystallinity) ([11]; CSE2, Pressure 5MPa): Slight decrease in crystallinity | XRPD ([11]; CSE2, Pressure 5MPa): Choline salt Form B | Remarks (crystallinity) ([11]; CSE3, Pressure 10MPa): Slight decrease in crystallinity | XRPD ([11]; CSE3, Pressure 10MPa): Choline salt Form B | crystal form transition and crystallinity after tableting ([11]; tableting (<2 MPa)): no crystal form transition and no significant decrease in crystallinity | crystal form transition and crystallinity after tableting ([11]; tableting pressure 5 to 10 MPa): no crystal form transition, and its crystallinity only slightly decreased | Remarks (crystallinity) [12, 22]: No significant change in crystallinity | XRPD [12, 22]: Choline salt Form B | crystal form transition and crystallinity after wet grinding ([12]; wetted with ethanol, ground, dried 10 minutes, XRPD): no crystal form transition and no significant decrease in crystallinity | Remarks (crystallinity) ([13]; GSE1, Grinding time 5 min): No significant change in crystallinity | XRPD ([13]; GSE1, Grinding time 5 min): Choline salt Form B | crystal form transition and crystallinity after dry grinding ([13]; manually ground 5 minutes, XRPD): no crystal form transition and no significant decrease in crystallinity
